US6274368A

How the values were obtained:
[1] = system: Rhodococcus rhodochrous 11Y whole cells; assay: Whole cell incubation of RDX with cells of 11Y; conditions: 300 μM RDX, 30° C., 12 hour period, FIG. 2
[2] = system: RDX degrading enzymic activity (cell free extract of Rhodococcus rhodochrous 11Y); assay: RDX degradation by cell free (crude) extract, disappearance of RDX by HPLC; conditions: 30° C., 50 mM Tricine, 50 μM RDX, 5 mM DTT, 0 to 60 min
[3] = system: RDX degrading enzymic activity (membrane fraction of Rhodococcus rhodochrous 11Y); assay: RDX degradation by membrane fraction, HPLC / nitrite release; conditions: 50 μM RDX, 30° C.
[4] = system: RDX degrading enzymic activity (crude extract of Rhodococcus rhodochrous 11Y); assay: Nitrite release from RDX by crude extract (Griess reagent); conditions: 50 μM RDX, 5 mM DTT

O=[N+]([O-])N1CN([N+](=O)[O-])CN([N+](=O)[O-])C1
concentration of formaldehyde [1]: also increased
concentration of nitrite [1]: seen to increase
concentration of RDX (HPLC) [2]: seen to decrease
nitrite production [3]: produced nitrite
concentration of RDX (HPLC) ([3]; 50 mM Tricine, 5 mM DTT, 0 to 60 min): seen to decrease with elapsed time
RDX degradation (TLC) and nitrite production ([4]; crude extract (French press), Tricine pH 8.0): RDX degradation and concomitant nitrite production were observed
concentration of nitrite (Griess reagent) ([4]; crude extract, 30° C., 0 to 60 min, FIG. 1): seen to increase

Only a part of the results on these compounds is given; other tests are left out.
